# Experimental data taken from paper PMC10872542 (Structure (London, England : 1993), 2023).
# Protein sequences, listed by entry. Tags and fused reporters are not part of them.
# UniProt Q9XSM3, whole entry L475A: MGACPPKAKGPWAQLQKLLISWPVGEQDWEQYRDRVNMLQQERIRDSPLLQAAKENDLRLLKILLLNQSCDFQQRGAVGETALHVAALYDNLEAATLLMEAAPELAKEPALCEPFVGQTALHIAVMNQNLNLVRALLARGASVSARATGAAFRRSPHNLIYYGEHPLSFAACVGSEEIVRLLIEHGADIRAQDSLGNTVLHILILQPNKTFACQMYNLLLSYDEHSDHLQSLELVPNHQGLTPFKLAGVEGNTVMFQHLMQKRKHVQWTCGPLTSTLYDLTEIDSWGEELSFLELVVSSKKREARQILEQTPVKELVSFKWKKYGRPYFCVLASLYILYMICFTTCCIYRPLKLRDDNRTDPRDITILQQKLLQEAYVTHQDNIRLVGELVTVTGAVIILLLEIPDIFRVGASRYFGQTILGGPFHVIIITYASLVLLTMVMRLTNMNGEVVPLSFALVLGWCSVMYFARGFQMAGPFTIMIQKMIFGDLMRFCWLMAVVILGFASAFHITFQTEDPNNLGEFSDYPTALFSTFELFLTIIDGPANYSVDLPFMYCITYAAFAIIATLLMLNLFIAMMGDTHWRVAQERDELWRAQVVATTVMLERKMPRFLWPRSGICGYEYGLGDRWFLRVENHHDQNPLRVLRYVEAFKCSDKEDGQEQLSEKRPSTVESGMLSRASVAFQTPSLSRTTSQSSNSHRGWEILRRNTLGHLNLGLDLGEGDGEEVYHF
# UniProt Q9XSM3, whole entry F472A: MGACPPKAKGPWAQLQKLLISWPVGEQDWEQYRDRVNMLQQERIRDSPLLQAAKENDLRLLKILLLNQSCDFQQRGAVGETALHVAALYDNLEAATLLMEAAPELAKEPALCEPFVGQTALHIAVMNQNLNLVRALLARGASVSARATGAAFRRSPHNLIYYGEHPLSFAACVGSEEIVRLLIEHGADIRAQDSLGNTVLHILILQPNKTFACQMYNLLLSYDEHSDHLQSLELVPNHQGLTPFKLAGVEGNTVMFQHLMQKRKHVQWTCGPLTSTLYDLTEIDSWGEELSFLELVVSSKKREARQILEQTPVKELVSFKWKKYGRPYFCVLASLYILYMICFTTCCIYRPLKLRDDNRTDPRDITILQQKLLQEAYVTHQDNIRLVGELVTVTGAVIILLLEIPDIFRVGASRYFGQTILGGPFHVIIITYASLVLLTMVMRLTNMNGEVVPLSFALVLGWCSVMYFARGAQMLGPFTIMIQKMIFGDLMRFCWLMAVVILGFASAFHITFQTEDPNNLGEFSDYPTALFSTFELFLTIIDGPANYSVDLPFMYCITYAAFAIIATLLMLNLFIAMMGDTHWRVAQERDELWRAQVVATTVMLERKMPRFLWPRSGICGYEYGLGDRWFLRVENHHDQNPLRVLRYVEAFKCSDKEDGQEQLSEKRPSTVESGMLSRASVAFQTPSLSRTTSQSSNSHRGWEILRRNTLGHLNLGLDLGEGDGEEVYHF
# Experiments:
# wild-type rbTRPV5 = wild-type rbTRPV5 (Oryctolagus cuniculus, UniProt Q9XSM3); conditions: wild-type TRPV5, 10 μM ECN, whole-cell patch clamp, n=7
# rbTRPV5 L475A mutant = rbTRPV5 L475A mutant (Oryctolagus cuniculus, UniProt Q9XSM3, L475A); conditions: 10 μM ECN, whole-cell patch clamp, n=6
# rbTRPV5 F472A mutant = rbTRPV5 F472A mutant (Oryctolagus cuniculus, UniProt Q9XSM3, F472A); conditions: 10 μM ECN, whole-cell patch clamp, n=6
compound,measurement,setting,value
Clc1ccc(COC(Cn2ccnc2)c2ccc(Cl)cc2Cl)cc1 (stereo not drawn) [econazole],inhibition of monovalent currents,wild-type rbTRPV5,~ 100%
same,inhibition of monovalent currents,rbTRPV5 L475A mutant,~ 25%
same,inhibition of monovalent currents,rbTRPV5 F472A mutant,~ 65%
